This is an account of results in article PMC11602115 (Journal of Medicinal Chemistry, 2017).

Amino acid sequences for entries named in this document (tags omitted). A change or cut given only in a name is not applied to a line headed by its entry.
UniProt P43119: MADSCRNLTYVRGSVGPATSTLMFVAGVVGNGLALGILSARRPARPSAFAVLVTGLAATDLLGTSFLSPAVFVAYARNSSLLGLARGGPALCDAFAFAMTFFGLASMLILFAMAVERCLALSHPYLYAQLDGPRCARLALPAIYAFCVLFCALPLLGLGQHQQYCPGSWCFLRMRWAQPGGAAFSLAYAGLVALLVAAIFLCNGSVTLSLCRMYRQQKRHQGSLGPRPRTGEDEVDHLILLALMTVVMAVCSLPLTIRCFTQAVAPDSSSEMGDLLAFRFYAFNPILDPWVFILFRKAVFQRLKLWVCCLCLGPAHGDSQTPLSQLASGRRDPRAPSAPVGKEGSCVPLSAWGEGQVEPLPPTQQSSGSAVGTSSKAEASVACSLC
UniProt P43116: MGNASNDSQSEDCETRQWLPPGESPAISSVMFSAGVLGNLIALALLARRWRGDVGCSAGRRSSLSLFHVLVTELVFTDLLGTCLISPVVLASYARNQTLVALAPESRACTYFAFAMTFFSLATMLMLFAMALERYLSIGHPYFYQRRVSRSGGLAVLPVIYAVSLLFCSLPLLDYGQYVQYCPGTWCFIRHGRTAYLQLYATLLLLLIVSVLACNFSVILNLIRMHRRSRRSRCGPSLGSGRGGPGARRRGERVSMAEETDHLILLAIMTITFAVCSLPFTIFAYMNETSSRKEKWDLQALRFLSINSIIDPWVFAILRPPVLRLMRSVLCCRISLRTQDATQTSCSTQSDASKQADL

The structures appear in SMILES notation.

Type in all cases: cell-based
The test system of test [1] is primary human pulmonary arterial smooth muscle cells. Nature of the test: HTRF cAMP assay in primary human pulmonary arterial smooth muscle cells. To be noted: PASMC, n = 8, read-out: EC50 [95% CI], primary human PASMC cAMP. The protocol: Additional In Vitro Assays […]
Compounds were also evaluated in HTRF cAMP assays using primary human pulmonary arterial smooth muscle cells (Cell Applications, Inc., #352Kq05a, or ThermoFisher/Gibco, #C0095C) using the same basic assay protocol outlined in the Experimental section. Cells were cultured as recommended by the suppliers, used at low passage and seeded into 384qwell assay plates at a density of 700q900 cell per well
(In general: In TR-FRET formats the signal depends on donor and acceptor labels being close together.)

The test system of test [2] is human platelet. Nature of the test: Inhibition of ADP-induced human platelet aggregation. To be noted: aggregation induced by 2.5 μM ADP, mean of at least two determinations. The protocol: Such aggregated and activated platelets produce vasoactive substances such as thromboxane and serotonin that may cause harmful vasoconstriction and vascular remodeling.[13] […] This secondary assay was carried out as previously described,[14] with aggregation induced by 2.5 μM ADP in the presence or absence of IP receptor agonists.

Test [3] deals with IP (Homo sapiens, UniProt P43119). Nature of the test: HTRF cAMP assay, recombinant human IP receptor stably expressed in CHO-K1 cells. Also on record: expressed in transfected cells. To be noted: mean of at least three determinations. The protocol: The new compounds were tested for functional agonist activity in a standard (Cisbio) cAMP assay using recombinant IP or DP1 receptors stably expressed in CHO-K1 cells. Clonal cell lines were derived following standard protocols, but receptor expression levels were kept to a minimum to preclude receptor reserve effects.
For development of cAMP accumulation assays, recombinant IP or DP1 receptors were stably expressed in CHO-K1 cells and clonal cell lines derived following standard protocols. Receptor expression levels were minimized to preclude receptor reserve effects. HTRF cAMP assays were performed according to the manufacturer’s instructions (Cisbio, cAMP Dynamic 2 assay kit; no. 62AM4PEJ). IP receptor-expressing cells were harvested, resuspended in assay buffer (PBS containing 1 mM IBMX and 0.2% BSA) at a density of 200 000 cells per mL, and dispensed into 384-well assay plates (PerkinElmer Proxiplate no. 6008280) at 5 μL per well. Test compounds were solubilized and serially diluted in DMSO using 5-fold dilutions to generate a 10-point dose–response curve with a top concentration of 10 μM. The samples were then further diluted in PBS to achieve a 2× stock. […] Plates were then incubated at room temperature for 1 h prior to reading. Time-resolved fluorescence measurements were collected on PerkinElmer Envision or BMG Pherastar microplate readers.

In test [4] the target is EP2 (Homo sapiens, UniProt P43116). As to the kind of experiment: cAMP HTRF agonist assay, EP2. An excerpt:
Table Sup2: Data with some comparator compounds in functional assays.
Compound DP1 EP1 EP2 EP3v6 EP4
EC50, µµµµM (% I.A) EC50, µµµµM (% I.A) EC50, µµµµM (% I.A) EC50, µµµµM (% I.A) EC50, µµµµM (% I.A)
n = 3 n = 2 n = 8 n = 6 n = 6
All assays were cAMP HTRF agonist assays (Gs) except for EP3v6 which was a melanophore dispersion
Additional data from the in vivo evaluation of 5c […]

On to `O=C(O)COC[C@H]1CC[C@H](COC(=O)N(c2ccccc2)c2ccc(Cl)cc2)CC1` [5c, Sodium 2-(((1r,4r)-4-(((4-Chlorophenyl)(phenyl)carbamoyloxy)methyl)cyclohexyl)methoxy)acetate], for which the EC50 in test [1] amounted to 24 nM. Take `O=C(O)COC[C@H]1CC[C@H](COC(=O)N(c2ccccc2)c2cccc(Cl)c2)CC1` [5i, 2-(((1r,4r)-4-(((3-Chlorophenyl)(phenyl)carbamoyloxy)methyl)cyclohexyl)methoxy)acetic Acid]: the midpoint of inhibition in test [2], the IC50, lay at 54 nM. Besides, the EC50 in test [3] stood at 19 nM.

The compound `CCCCC[C@H](O)/C=C/[C@H]1[C@H](O)CC(=O)[C@@H]1C/C=C\CCCC(=O)O` [PGE2] registered an EC50 in test [4] of 5.5 nM.

The term EC50 denotes the concentration needed to bring the measured effect to its halfway point. The term IC50 denotes the point on the concentration scale where inhibition reaches its midpoint.
